{
  "source": "paper PMC10132805",
  "about": "(2023)",
  "key": {"[1]": {"target": "T1, NEDD4 binding peptide from RNF11 (human, UniProt Q9Y3C5)", "experiment": "FP; NEDD4 WW4"}, "[2]": {"target": "T1, NEDD4 binding peptide from RNF11", "experiment": "FP; NEDD4 WW2"}},
  "data": [
    {"binder": "GPLPPGWEERTHTDGRIFYINHNIKRTQWEDPRL (domain or fragment)", "note": "[E3 ubiquitin-protein ligase NEDD4 WW domain]", "values": [
      {"measurement": "Kd", "setting": "[1]", "result": 44, "unit": "µM"},
      {"measurement": "Kd", "setting": "[2]", "result": 13, "unit": "µM"}
    ]}
  ]
}
